The values below are quoted from earlier work in paper PMC3953223 (Biochemistry, 2013).

Usually Kd stands for a measure of binding affinity in units of concentration.

The data set addresses PfENR. The conditions noted are these: read-out: Kd, triclosan binding to PfENR; 250 µM NAD^+; cited from earlier work.

With `Oc1cc(Cl)ccc1Oc1ccc(Cl)cc1Cl` [Triclosan, triclosan], the dissociation constant (Kd) is 0.032 µM.
